IC50 data for four compounds are collected here from patent publication US11702409B2, “Pyrazolyl derivatives useful as anti-cancer agents” (NOVARTIS AG, priority 2019, dated 2023).

Usually IC50 stands for the midpoint of a concentration-inhibition curve.

The target in the assay is KRasG12C (M1-K169, biotinylated on the N-terminus) (Homo sapiens (Human), UniProt P01116, G12C). Description: Covalent competition assay (scintillation proximity assay, competition with radiolabeled covalent probe Compound B). Format: binding. Conditions: read-out: Covalent Competition Assay IC50; in vitro KRASG12C activity; 10 nM KRasG12C:GDP, 25 nM radio-ligand and 475 nM unlabelled ligand, incubated 2 hours. On the technique in general: Scintillation proximity formats need no separation of bound from free tracer.
Regarding `C=CC(=O)N1CC2(CC(n3nc(-c4ccc5c(cnn5CCN5CC(OC)C5)c4)c(-c4c(Cl)c(C)cc5[nH]ncc45)c3C)C2)C1` [Example 81b], the IC50 was 2600 nM.

For `C=CC(=O)N1CC2(CC(n3nc(-c4ccc5c(cnn5CCN5CC(OC)C5)c4)c(-c4c(Cl)c(C)cc5[nH]ncc45)c3C)C2)C1` [Example 81a], the IC50 worked out at 110 nM.

For the compound `C=CC(=O)N1CC2(CC(n3nc(-c4cc(C)n(CCN(C)C)n4)c(-c4c(Cl)c(C)cc5[nH]ncc45)c3C)C2)C1` [Example 93a], the IC50 was 2100 nM.

Take `C=CC(=O)N1CC2(CC(n3nc(-c4cc(C)n(CCN(C)C)n4)c(-c4c(Cl)c(C)cc5[nH]ncc45)c3C)C2)C1` [Example 93b]: the IC50 was 9500 nM.
